Measured values: PubChem BioAssay AID2283317 (EPA ToxCast)
Only a part is listed here, and it is no random draw. Records with an inconclusive call do not appear. Activity calls are given as the source filed them. Rule for the calls: active = hit-call score of the fitted dose curve at least 0.9, where 1 is the maximum; inconclusive = response in the unintended direction; inactive = score below 0.9.

Test system: NCBI gene 257648
Experiment: NVS_IC_rCaChN: NovaScreen (NVS) Ion Channel Assay for human Calcium Channel, Type N (CaChN)

O=[N+]([O-])c1cccc([N+](=O)[O-])c1
outcome: inactive
